Assay results: patent publication US5703097A, “5-pyrrolyl-2-pyridylmethylsulfinyl benzimidazole derivatives” (priority 1994, dated 1997)

Test system: ICR (male, female) mouse
Details: in vivo, po
Description: Five weeks aged ICR (male, female) mouse were pre-bred in the breeding cage for one week and then the animals showing a smooth gain in body weight were randomly selected and used in this test. The amount to be administered to the test animals was established on the basis of the maximum dose of 4,000 mg/kg with the common ratio of 1.5.
The test compounds in a powder form were suspended in 0.5% methylcellulose and administered per oral using a syringe. The other specific conditions for administration are described in the following.
In the above test, the control group received only 0.5% methylcellulose.

Compound	Lethality (1178 mg/kg)	Lethality (1185 mg/kg)	Lethality (1778 mg/kg)	Lethality (2667 mg/kg)	LD50
COc1ccnc(C[S+]([O-])c2nc3cc(-n4cccc4)ccc3[nH]2)c1C (stereo not drawn) [Compound 2, 2-[[(4-methoxy-3-methyl)-2-pyridinyl]methylsulfinyl]-5-(1H-pyrrol-1-yl)-1H-benzimidazole]	0/5	0/5	0/5	0/5	–
COc1ccc2[nH]c([S+]([O-])Cc3ncc(C)c(OC)c3C)nc2c1 (stereo not drawn) [Omeprazole, 5-methoxy-2-[[(4-methoxy-3,5-dimethyl-2-pyridinyl)methyl]sulfinyl]-1H-benzimidazole, reference compound]	0/5	0/5	0/5	0/5	> 4000.0 mg/kg

Like-named read-outs stand apart in the source and are kept apart here.
